# Measured values from PMC10756763, “Biosynthesis, herbivore induction, and defensive role of phenylacetaldoxime glucoside” (Plant Physiology, 2023).
# Columns and labels:
# CYP79A206 = biological target: T1, CYP79A206 (Miconia microphysca, UniProt A0AA50KI25); test: aldoxime formation by yeast microsomes, LC-MS/MS; assay type: biochemical; conditions: 1 mM substrate, 1 mM NADPH, 75 mM sodium phosphate pH 7.0, 25 °C
# T1 sequence (A0AA50KI25 1-555): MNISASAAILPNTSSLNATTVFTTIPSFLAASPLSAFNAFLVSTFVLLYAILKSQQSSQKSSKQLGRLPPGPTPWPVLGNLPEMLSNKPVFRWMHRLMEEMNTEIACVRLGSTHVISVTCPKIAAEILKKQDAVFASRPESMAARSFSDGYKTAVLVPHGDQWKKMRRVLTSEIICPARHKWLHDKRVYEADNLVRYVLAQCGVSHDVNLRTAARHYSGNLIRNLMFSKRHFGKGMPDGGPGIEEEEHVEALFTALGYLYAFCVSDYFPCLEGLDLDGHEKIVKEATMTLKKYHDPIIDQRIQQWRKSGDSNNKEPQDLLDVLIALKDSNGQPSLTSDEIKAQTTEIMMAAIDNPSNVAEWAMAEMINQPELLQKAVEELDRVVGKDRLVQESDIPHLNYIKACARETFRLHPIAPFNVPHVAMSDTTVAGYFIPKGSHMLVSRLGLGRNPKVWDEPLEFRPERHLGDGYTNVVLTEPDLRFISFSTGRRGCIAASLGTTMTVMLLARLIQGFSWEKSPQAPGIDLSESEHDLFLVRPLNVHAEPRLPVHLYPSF
# CYP79A207 = biological target: T2, CYP79A207 (Miconia microphysca, UniProt A0AA50KHK6); test: aldoxime formation by yeast microsomes, LC-MS/MS; assay type: biochemical; conditions: 1 mM substrate, 1 mM NADPH, 75 mM sodium phosphate pH 7.0, 25 °C
# T2 sequence (A0AA50KHK6 1-555): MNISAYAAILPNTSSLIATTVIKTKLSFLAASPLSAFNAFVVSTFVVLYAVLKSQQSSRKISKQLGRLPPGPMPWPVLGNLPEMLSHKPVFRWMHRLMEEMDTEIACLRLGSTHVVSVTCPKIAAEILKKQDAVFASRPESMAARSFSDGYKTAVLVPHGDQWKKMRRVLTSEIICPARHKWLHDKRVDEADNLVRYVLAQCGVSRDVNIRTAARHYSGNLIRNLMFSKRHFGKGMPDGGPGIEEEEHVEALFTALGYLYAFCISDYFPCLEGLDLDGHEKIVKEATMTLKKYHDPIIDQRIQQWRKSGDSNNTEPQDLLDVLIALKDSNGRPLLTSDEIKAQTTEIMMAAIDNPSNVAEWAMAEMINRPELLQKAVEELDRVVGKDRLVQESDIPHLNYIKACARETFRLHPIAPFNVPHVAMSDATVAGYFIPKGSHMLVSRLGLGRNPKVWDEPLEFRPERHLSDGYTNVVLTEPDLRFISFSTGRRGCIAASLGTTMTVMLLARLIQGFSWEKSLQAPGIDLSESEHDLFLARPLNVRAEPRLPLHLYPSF
smiles,measurement,setting,value
N[C@@H](Cc1ccc(O)cc1)C(=O)O [L-tyrosine],"aldoxime formation by yeast microsomes, LC-MS/MS",CYP79A206,"microsomes containing CYP79A206 or CYP79A207 with L-phenylalanine, L-tyrosine, or L-tryptophan"
same,"aldoxime formation by yeast microsomes, LC-MS/MS",CYP79A207,"microsomes containing CYP79A206 or CYP79A207 with L-phenylalanine, L-tyrosine, or L-tryptophan"
